Reference: ChEMBL document CHEMBL4190161 (Medchemcomm, 2016)

Legend:
[1] = Metal chelating activity assessed as compound-Fe2+ complex formation
[2] = Antioxidant activity of the compound in phosphate buffer at pH 7.4 assessed as trolox equivalent of AAPH-induced peroxyl radical scavenging activity at 6 uM pretreated for 2 mins followed by AAPH addition measured at 2 mins interval for 108 minutes by ORAC-FL assay; format: functional
[3] = Antioxidant activity assessed as trolox equivalent of hydroxyl radical scavenging activity up to 25 mg/ml measured after 60 mins by fenton reaction method; format: functional
[4] = Antioxidant activity assessed as DPPH radical scavenging activity incubated for 30 mins under dark condition by spectrophotometric method; format: functional

**Q.** For `CC(C)C[C@H](NC(=O)[C@@H]1CCCN1)C(=O)NCC(=O)O`, which Activity [1] is on record?
**A.** inactive

**Q.** What about the Activity (umolequiv/umol) [2] of the same compound?
**A.** 0.03

**Q.** And the Activity [3]?
**A.** inactive

**Q.** What about the IC50 [4] of the same compound?
**A.** 106 mM

Activity calls are given as the source filed them. The rule behind the calls is not given here.
